PubChem BioAssay (NCATS)
Only a part is listed here, and it is no random draw. Inconclusive results are not listed. For some of these results: Entries with a potency or affinity are not part of this list. The source made the active and inactive calls. Unless noted, calls follow the shape of the dose curve; as a rule, active = well fitted curve in either direction with a large enough effect (not every such curve was filed as active); inconclusive = small, poorly fitted or top-dose-only effect, or another doubt; inactive = flat fitted curve, though single readings scatter.

Protein sequences, listed by entry. Tags and fused reporters are not part of them. Lines headed by an entry give the natural chain unless they say otherwise; changes in a name come on top.
UniProt Q07343: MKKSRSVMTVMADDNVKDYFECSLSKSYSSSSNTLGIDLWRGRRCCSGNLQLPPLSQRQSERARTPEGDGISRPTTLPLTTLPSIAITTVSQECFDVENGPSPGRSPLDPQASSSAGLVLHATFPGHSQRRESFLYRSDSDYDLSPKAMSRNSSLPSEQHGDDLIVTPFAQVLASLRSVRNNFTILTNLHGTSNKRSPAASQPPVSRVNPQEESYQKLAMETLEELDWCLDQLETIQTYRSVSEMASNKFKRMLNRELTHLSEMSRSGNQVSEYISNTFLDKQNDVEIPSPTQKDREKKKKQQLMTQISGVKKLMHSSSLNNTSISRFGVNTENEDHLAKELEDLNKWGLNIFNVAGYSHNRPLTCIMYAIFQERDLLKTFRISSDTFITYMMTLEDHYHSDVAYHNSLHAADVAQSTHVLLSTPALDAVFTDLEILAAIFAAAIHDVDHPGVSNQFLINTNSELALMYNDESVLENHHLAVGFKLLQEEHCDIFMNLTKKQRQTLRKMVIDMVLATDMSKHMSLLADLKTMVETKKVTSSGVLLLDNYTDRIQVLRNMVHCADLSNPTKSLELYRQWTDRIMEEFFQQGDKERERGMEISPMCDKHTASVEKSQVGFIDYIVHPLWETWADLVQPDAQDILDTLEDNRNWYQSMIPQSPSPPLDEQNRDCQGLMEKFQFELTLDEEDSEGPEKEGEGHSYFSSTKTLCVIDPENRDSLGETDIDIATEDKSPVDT
UniProt P03372, whole entry, looked up: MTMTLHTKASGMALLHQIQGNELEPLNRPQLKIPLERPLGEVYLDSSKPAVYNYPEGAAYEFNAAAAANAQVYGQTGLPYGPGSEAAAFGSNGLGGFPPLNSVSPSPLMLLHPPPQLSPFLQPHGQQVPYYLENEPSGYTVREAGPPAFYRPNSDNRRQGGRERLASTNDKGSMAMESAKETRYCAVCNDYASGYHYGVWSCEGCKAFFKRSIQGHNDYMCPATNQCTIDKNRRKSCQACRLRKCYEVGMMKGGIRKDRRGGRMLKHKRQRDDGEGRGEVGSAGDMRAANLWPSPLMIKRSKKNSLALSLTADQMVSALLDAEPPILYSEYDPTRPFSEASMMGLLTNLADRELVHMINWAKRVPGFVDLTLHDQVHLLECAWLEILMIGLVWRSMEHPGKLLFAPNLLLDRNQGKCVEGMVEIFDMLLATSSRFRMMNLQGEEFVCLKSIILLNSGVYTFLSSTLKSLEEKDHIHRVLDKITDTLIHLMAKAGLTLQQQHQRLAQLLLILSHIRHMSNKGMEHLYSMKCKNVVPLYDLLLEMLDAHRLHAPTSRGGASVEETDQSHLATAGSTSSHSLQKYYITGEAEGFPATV
UniProt P19793: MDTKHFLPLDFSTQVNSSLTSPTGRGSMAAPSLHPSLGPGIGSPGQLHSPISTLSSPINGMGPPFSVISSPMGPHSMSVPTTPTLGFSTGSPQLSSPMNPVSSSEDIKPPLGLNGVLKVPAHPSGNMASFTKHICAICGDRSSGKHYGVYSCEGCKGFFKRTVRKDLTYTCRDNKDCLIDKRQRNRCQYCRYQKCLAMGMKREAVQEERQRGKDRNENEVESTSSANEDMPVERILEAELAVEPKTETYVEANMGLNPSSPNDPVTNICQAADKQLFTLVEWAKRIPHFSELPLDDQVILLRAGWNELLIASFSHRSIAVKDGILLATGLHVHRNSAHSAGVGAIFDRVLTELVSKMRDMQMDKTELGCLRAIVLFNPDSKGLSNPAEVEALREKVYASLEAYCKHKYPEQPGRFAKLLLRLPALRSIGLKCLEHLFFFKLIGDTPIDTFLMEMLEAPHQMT
UniProt Q07869: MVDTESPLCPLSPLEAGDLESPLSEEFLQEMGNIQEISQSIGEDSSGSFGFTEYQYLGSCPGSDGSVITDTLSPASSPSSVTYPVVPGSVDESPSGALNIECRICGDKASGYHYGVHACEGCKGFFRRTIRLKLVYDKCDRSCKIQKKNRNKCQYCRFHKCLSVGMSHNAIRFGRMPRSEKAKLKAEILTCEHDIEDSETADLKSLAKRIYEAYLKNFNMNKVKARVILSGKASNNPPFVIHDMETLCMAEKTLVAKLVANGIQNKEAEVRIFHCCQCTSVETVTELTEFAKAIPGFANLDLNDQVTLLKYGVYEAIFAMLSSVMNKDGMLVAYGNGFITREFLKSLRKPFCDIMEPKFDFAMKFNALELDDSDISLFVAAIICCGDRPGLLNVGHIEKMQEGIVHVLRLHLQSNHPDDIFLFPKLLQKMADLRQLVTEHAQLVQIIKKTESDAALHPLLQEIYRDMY
UniProt Q9R1A7: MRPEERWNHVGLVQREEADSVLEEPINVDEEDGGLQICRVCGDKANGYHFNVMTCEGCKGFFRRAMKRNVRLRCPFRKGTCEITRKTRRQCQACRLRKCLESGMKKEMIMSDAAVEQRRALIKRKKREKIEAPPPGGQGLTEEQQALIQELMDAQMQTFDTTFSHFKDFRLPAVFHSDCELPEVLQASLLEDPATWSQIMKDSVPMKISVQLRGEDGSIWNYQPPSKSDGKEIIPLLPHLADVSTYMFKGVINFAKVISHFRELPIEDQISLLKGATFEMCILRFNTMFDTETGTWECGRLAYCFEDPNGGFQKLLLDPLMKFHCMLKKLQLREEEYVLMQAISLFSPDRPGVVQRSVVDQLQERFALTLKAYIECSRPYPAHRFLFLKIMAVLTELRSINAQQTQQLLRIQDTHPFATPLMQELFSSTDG

What was measured:
[1] = NFAT Signaling Pathway (AID 444); details: Jurkat NFAT-bla M1, carbachol, beta-lactamase ratio, 5 h; at 7.69 µM (top of the series) unless noted;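 also: carbachol stimulus at about its EC50 of 1 µM final; % is scaled to controls: 0 for no effect and ±100 for the full control effect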
[2] = Stat Signaling Pathway (AID 446); details: ME-180 SIE beta-lactamase reporter, IL-6 stimulated, 5 h; at 7.69 µM (top of the series) unless noted;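 also: ME-180 cervical cancer cells given 40 pM IL-6 alongside compound; SIE-controlled beta-lactamase reporter measured as 460/530 nm FRET emission ratio; % is scaled to controls: 0 for no effect and ±100 for the full control effect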
Method in brief: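 ME-180 SIE-bla cells; overnight plating; cpd + IL-6 40 pM, 5 h, 37 C; LiveBLAzer 2.5 h RT; 460/530 nm emission ratio. Normalized to 300 pM IL-6 and 125 nM JAK inhibitor controls.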

[3] = biological target: Mitogen-activated protein kinase 10 (Mus musculus) (UniProt Q61831); assay: JNK3 AlphaScreen Assay (AID 530); details: JNK3 lysate, c-Jun phosphorylation; at 11.4 µM (top of the series) unless noted;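 also: kinase came from lysate of stimulated human HepG2 cells; signal reports phosphorylation of biotinylated GST-cJun 1-79 at Ser73 with 10 µM ATP; % is scaled to controls: 0 for no effect and ±100 for the full control effect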
Method in brief: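 qHTS format: compounds tested as titrations against IL-1beta/TNF-alpha-activated HepG2 lysate JNK3 with biotin-GST-cJun substrate and 10 uM ATP at room temperature. Loss of anti-phospho-cJun AlphaScreen signal indicates inhibition.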

[4] = biological target: 3',5'-cyclic-AMP phosphodiesterase 4B (Homo sapiens) (UniProt Q07343); assay: qHTS Assay for Inhibitors of PDE-IV (AID 607; active = well fitted activation curve with a large enough effect in the main read-out, with a control signal flat, not every such curve was filed as active; also: % of control where 0% means no effect); details: HEK293 ACTOne CNG channel cells, membrane potential fluorescence; at 22.9 µM (top of the series)
Method in brief: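 ACTOne HEK293 cells carry a modified cAMP-gated CNG channel and express endogenous PDE4; plated 1000 cells/well, compounds up to 22.9 uM final. Membrane-potential dye fluorescence (ex 535/em 590) was read; parental cells received 10 uM forskolin + 100 uM RO 20-1724.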

[5] = Cell Proliferation Assay against the HBL1 Cell Line (AID 651646; active = well fitted curve in the direction sought with a large enough effect; an effect the other way counts as inactive or inconclusive;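 also: cells exposed to compound for 48 h before reading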); details: HBL1 DLBCL cells; at 46.1 µM (top of the series) unless noted
Method in brief: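 HBL1 ABC DLBCL cells, 500/well in RPMI with 5% FBS, treated for 48 h at 37C. Viability read by CellTiter-Glo luminescence, normalized to DMSO as 100% and 9.2 uM bortezomib as 0%.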

[6] = biological target: Estrogen receptor (Homo sapiens) (UniProt P03372); assay: qHTS assay for small molecule agonists of estrogen receptor alpha signaling (AID 588514; calls by dose curve;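 also: 0% = vehicle only and 100% = reference agonist; nearly all actives have a fitted effect of over 70% in size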); details: ER-alpha-UAS-bla HEK293, beta-lactamase ratio, 18 h, percent of full estradiol response, vehicle zero; at 76.8 µM (top of the series)
[7] = biological target: Bile acid receptor (Homo sapiens) (UniProt Q96RI1); assay: qHTS assay for small molecule antagonists of farnesoid X receptor signaling (AID 588526; calls by dose curve; also: % is scaled to controls: 0 for no effect and ±100 for the full control effect); details: HEK293T FXR-UAS-bla, beta-lactamase ratio, antagonist mode; at 76.7 µM (top of the series)
[8] = biological target: Bile acid receptor (Homo sapiens) (UniProt Q96RI1); assay: qHTS assay for small molecule agonists of farnesoid X receptor signaling (AID 588527; calls by dose curve;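 also: 0% = vehicle basal and 100% = reference agonist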); details: HEK293T FXR-UAS-bla, beta-lactamase ratio, 16 h; stronger effect = higher value
[9] = biological target: Glucocorticoid receptor (Homo sapiens) (UniProt P04150); assay: qHTS assay for small molecule agonists of glucocorticoid receptor signaling (AID 588532; active = well fitted curve in the direction sought with a large enough effect in the signal ratio, with a control signal flat; the % refers to the signal ratio;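 also: 100% = dexamethasone at 0.1 µM and 0% = DMSO only wells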); details: HeLa MMTV-bla, beta-lactamase ratio, agonist, 18 h; stronger effect = higher value
[10] = biological target: Glucocorticoid receptor (Homo sapiens) (UniProt P04150); assay: qHTS assay for small molecule antagonists of glucocorticoid receptor signaling (AID 588533; active = well fitted inhibition curve with a large enough effect in the signal ratio, with a control signal flat, not every such curve was filed as active; the % refers to the signal ratio; also: % is scaled to controls: 0 for no effect and ±100 for the full control effect); details: HeLa MMTV-bla, GRE beta-lactamase ratio, antagonist mode, 18 h; at 76.8 µM (top of the series)
[11] = biological target: Peroxisome proliferator-activated receptor gamma (Homo sapiens) (UniProt P37231); assay: qHTS assay for small molecule agonists of peroxisome proliferator-activated receptor gamma signaling (AID 588536; active = well fitted curve in the direction sought with a large enough effect in the signal ratio, with a control signal flat, not every such curve was filed as active; the % refers to the signal ratio;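 also: 0% = DMSO basal wells and 100% = rosiglitazone at 2 µM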); details: HEK293 PPARg-UAS-bla, beta-lactamase ratio, 16 h, percent of rosiglitazone response, DMSO as zero; at 76.7 µM (top of the series)
[12] = biological target: Peroxisome proliferator-activated receptor gamma (Homo sapiens) (UniProt P37231); assay: qHTS assay for small molecule antagonists of peroxisome proliferator-activated receptor gamma signaling (AID 588537; active = well fitted inhibition curve with a large enough effect in the signal ratio, with a control signal flat, not every such curve was filed as active; the % refers to the signal ratio;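 also: reporter cells co-stimulated with 50 nM rosiglitazone agonist during compound treatment; % of control where 0% means no effect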); details: HEK293 PPARg-UAS-bla, beta-lactamase ratio, antagonist mode; at 76.8 µM (top of the series)
Method in brief: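 Step one: plate 3000 HEK293 UAS-bla cells per well in medium with 1% stripped serum and hold 6-6.5 h at 37 C. Step two: add compound and 50 nM agonist for 16 h. Step three: CCF4 loading, fluorescence read.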

[13] = biological target: Vitamin D3 receptor (Homo sapiens) (UniProt P11473); assay: qHTS assay for small molecule antagonists of vitamin D receptor signaling (AID 588541; calls by dose curve); details: HEK293T VDR-UAS-bla, beta-lactamase ratio, antagonist mode; at 76.7 µM (top of the series)
Method in brief: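 VDR-UAS-bla HEK293T cells in 2% charcoal-stripped FBS were stimulated with 1-alpha,25-dihydroxyvitamin D3 (3 nM final) plus compound for 16 h at 37 C. The beta-lactamase CCF4 readout was normalized to 50 nM agonist and DMSO, and Hill fits gave IC50.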

[14] = biological target: Retinoic acid receptor RXR-alpha (Homo sapiens) (UniProt P19793); assay: qHTS assay for small molecule antagonists of retinoid X receptor alpha signaling (AID 588546; active = well fitted inhibition curve with a large enough effect in the signal ratio, with a control signal flat, not every such curve was filed as active; the % refers to the signal ratio); details: HEK293T RXRa-UAS-bla, beta-lactamase ratio, antagonist mode
Method in brief: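 Beta-lactamase reporter inhibition, read as CCF4 fluorescence ratio (ex 405, em 460/530 nm) after 2 h at RT. HEK293T UAS-bla cells, 2500/well, were stimulated with 9-cis-RA at 500 or 100 nM final alongside test compound for 18 h at 37 C.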

[15] = qHTS assay for small molecule agonists of the antioxidant response element (ARE) signaling pathway (AID 651741; active = well fitted activation curve with a large enough effect in the signal ratio; the % refers to the signal ratio; also: % of control where 0% means no effect); details: HepG2 ARE-bla reporter, beta-lactamase FRET ratio, 16 h; at 96 µM (top of the series)
Method in brief: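 HepG2 ARE-bla cells plated at 2,000 cells/well and incubated 5 h at 37 C/5% CO2 received 23 nL compound in DMSO. After 16 h at 37 C, LiveBLAzer B/G FRET substrate was applied for 2 h at room temperature and fluorescence read.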

[16] = qHTS assay for small molecule activators of the p53 signaling pathway (AID 651743; active = well fitted activation curve with a large enough effect in the signal ratio, not every such curve was filed as active; the % refers to the signal ratio; also: % of control where 0% means no effect); details: HCT-116 p53RE-bla, beta-lactamase FRET ratio, 16 h; activation: stronger effect = higher value
[17] = qHTS assay for small molecule activators of the nuclear factor-kappa B (NF-kB) signaling pathway (AID 651749; active = well fitted activation curve with a large enough effect in the signal ratio; the % refers to the signal ratio; also: % of control where 0% means no effect); details: NF-kB-bla ME-180 cells, beta-lactamase FRET ratio, 16 h; stronger effect = higher value
Method in brief: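 Incubation lasted 16 hr at 37C in 5% CO2 after 23 nL compound addition to ME-180 NF-kB-bla cells. Activation appears as beta-lactamase-mediated FRET loss.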

[18] = qHTS assay for environmental chemicals that activate the Aryl hydrocarbon Receptor (AhR) signaling pathway (AID 651777; active = well fitted curve in the direction sought with a large enough effect; an effect the other way counts as inactive or inconclusive; also: % of control where 0% means no effect; nearly all actives have a fitted effect of over 15% in size); details: 1A2-DRE human hepatoma cells, luciferase, 24 h; stronger effect = higher value
Method in brief: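 Human hepatoma 1A2-DRE cells stably carrying a DRE/CYP1A2 promoter–luciferase reporter, 1,200 cells/well, exposed to compound 24 hr at 37 C. Luciferase read by One-Glo luminescence after 30 min at room temperature; increased signal marks AhR activation.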

[19] = biological target: Peroxisome proliferator-activated receptor alpha (Homo sapiens) (UniProt Q07869); assay: qHTS assay for small molecule agonists of the peroxisome proliferator-activated receptor alpha (PPARalpha) signaling pathway (AID 651778; active = well fitted curve in the direction sought with a large enough effect; an effect the other way counts as inactive or inconclusive; also: % of control where 0% means no effect); details: PathHunter PPARalpha complementation, chemiluminescence, 6 h; stronger effect = higher value
[20] = qHTS assay for small molecule agonists of the antioxidant response element (ARE) signaling pathway measured by Nrf2-dependant transcriptional activity (AID 720636; active = well fitted curve in the direction sought with a large enough effect in the repeat runs; an effect the other way counts as inactive or inconclusive;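 also: HepG2 cells with an ARE-driven luciferase reporter; % of control where 0% means no effect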); details: ARE-luc HepG2, Nrf2 luciferase reporter, 16 h; at 92.4 µM (top of the series)
[21] = qHTS assay for small molecule agonists of the antioxidant response element (ARE) signaling pathway measured by Nrf2-dependant transcriptional activity - cell viability counter screen (AID 720653; active = well fitted curve in the direction sought with a large enough effect in the repeat runs; an effect the other way counts as inactive or inconclusive; also: % is scaled to controls: 0 for no effect and ±100 for the full control effect); details: ARE-bla HepG2 viability, CellTiter-Glo ATP luminescence, 16 h; stronger effect = lower value
Method in brief: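 ARE-bla HepG2 cells treated with compounds for 16 h at 37C; this counter screen measures viability as intracellular ATP by CellTiter-Glo luminescence after 30 min at room temperature.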

[22] = qHTS assay for cell viability of HEK293 cells (AID 743288; active = well fitted curve in the direction sought with a large enough effect; an effect the other way counts as inactive or inconclusive; also: % is scaled to controls: 0 for no effect and ±100 for the full control effect; nearly all actives have a fitted effect of over 50% in size); details: ATP luminescence (CellTiter-Glo), 18 h; max response: stronger effect = lower value
Method in brief: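 Environmental chemicals tested in qHTS format against parental HEK293 cells; 18 h treatment, 37 C; read-out ATP luminescence (CellTiter-Glo), 30 min RT development.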

[23] = qHTS assay for cell viability of the p53RE-bla HCT-116 cell line (AID 743292; active = well fitted curve in the direction sought with a large enough effect; an effect the other way counts as inactive or inconclusive; also: % is scaled to controls: 0 for no effect and ±100 for the full control effect; nearly all actives have a fitted effect of over 55% in size)
Method in brief: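 CellSensor p53RE-bla HCT-116 cells (4,000/well) pre-incubated 5 h at 37 C, then exposed to compounds in DMSO for 16 h at 37 C. Viability read as ATP content by CellTiter-Glo luminescence after 30 min at room temperature.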

[24] = biological target: Nuclear receptor subfamily 1 group I member 2 (Rattus norvegicus) (UniProt Q9R1A7); assay: qHTS assay for small molecule activators of the rat pregnane X receptor (rPXR) signaling pathway (AID 651751; call rule not given here; also: 0% is about no effect); details: rPXR reporter cells, luciferase (One-Glo), 24 h
[25] = qHTS assay for small molecule activators of the human pregnane X receptor (PXR) signaling pathway (AID 720659; call rule not given here; also: 0% is about no effect); details: DPX-2 HepG2 CYP3A4-luciferase, 24 h; at 92.3 µM (top of the series)

[N-]=[N+]=NCC(O)CN=[N+]=[N-] (centres undefined)
activity change, negative = inhibition [1]: inactive: 7.83%
activity, negative = inhibition [2]: inactive: 3.67%
activity change, negative = inhibition [3]: inactive: -0.0177%
activation (PDE inhibition) [4]: inactive: 0.863%

O=[As]c1ccc(S(=O)(=O)NCCO)cc1 (centres undefined)
activity change, negative = inhibition [1]: inactive: 3.72%
activity, negative = inhibition [2]: inactive: -8.53%
activity change, negative = inhibition [3]: inactive: 0.0792%
activation (PDE inhibition) [4]: inactive: -11.5%

Nc1nc(Cl)nc2c1ncn2[C@H]1C[C@H](O)[C@@H](CO)O1
viability, percent of control [5]: 68.9% [at 92.2 µM]

[N-]=[N+]=NCC(N)=O
activity change, negative = inhibition [1]: inactive: 0.823%
activity, negative = inhibition [2]: inactive: -0.888%
activity change, negative = inhibition [3]: inactive: 2.21%
activation (PDE inhibition) [4]: inactive: 3.97%

Cc1ccnc(NS(=O)(=O)c2ccc(NC(=O)Nc3ccc(S(=O)(=O)Nc4nccc(C)n4)cc3)cc2)n1
viability, percent of control [5]: 71.1%

COP(=S)(Cl)OC
activation [6]: inactive: 1.03%
activity change, negative = inhibition [7]: inactive: -5.46%
activation [8]: inactive: -0.998%
activation [9]: inactive: 5.42%
activity change, negative = inhibition [10]: inactive: 7.99%
activation [11]: inactive: -3.37%
activity, negative = inhibition [12]: inactive: -2.78%
activity change, negative = inhibition [13]: inactive: 3.97%
max response [14]: inactive: -3.07%
activation [15]: inactive: 0.906%
activation [16]: inactive: -7.06%
activation [17]: inactive: -2.19%
activation [18]: inactive: -2.15%
max response [19]: inactive: 1.16%
activation [20]: inactive: 0.428%
max response [21]: inactive: -3%
max response [22]: inactive: -5.03%
Potency [23]: inactive
max response [24]: inactive: -3.26%
activation [25]: inactive: -2.27%
